Assays:
Conditions in all cases: both partners purified
Full-length PSD-95 [1] = target: T1, Full-length PSD-95 (UniProt P78352 61-724); assay: fluorescence polarisation; competition, monomeric FP assay; probe not named for Table S1; 50 mM TRIS, 100 mM NaCl, 1 mM EDTA, 1 mM DTT; Ki from IC50
T1 construct: PSD-95, residues 61-end; also called PSD-95 FL; FL PSD-95; source: expressed from the pET32m3C expression vector by a previously reported protocol; donated by Mingjie Zhang

Sequences of proteins named here, by UniProt entry; tags and fusion partners are left off. Residues count along the entry.
UniProt P78352, 61-724: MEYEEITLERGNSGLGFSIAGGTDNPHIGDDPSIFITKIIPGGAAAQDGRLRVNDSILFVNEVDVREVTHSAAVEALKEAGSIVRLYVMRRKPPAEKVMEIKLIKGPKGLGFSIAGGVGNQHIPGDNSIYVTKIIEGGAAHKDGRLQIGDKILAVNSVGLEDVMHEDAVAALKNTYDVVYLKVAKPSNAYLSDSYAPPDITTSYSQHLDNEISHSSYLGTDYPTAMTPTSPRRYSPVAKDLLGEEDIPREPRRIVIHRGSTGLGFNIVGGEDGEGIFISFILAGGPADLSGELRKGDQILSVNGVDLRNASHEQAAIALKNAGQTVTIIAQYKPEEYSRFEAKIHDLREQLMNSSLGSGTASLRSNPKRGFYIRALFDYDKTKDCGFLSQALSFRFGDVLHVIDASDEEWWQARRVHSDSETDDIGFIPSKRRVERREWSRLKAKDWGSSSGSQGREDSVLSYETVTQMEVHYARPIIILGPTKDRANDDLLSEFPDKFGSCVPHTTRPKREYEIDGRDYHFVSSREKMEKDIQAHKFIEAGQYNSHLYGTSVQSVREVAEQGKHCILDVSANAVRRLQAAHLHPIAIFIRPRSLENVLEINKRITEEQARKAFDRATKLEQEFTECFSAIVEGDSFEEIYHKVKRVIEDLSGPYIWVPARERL
UniProt P78352, 61-401: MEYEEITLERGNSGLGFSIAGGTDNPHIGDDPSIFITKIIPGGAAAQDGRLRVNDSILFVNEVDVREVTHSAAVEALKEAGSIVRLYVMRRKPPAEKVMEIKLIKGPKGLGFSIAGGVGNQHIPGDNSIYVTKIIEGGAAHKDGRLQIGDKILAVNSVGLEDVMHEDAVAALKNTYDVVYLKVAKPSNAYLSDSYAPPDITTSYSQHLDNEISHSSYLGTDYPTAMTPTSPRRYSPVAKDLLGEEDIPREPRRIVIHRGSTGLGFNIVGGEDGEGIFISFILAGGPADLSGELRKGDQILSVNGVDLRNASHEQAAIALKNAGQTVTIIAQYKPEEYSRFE
UniProt Q15700, 94-509: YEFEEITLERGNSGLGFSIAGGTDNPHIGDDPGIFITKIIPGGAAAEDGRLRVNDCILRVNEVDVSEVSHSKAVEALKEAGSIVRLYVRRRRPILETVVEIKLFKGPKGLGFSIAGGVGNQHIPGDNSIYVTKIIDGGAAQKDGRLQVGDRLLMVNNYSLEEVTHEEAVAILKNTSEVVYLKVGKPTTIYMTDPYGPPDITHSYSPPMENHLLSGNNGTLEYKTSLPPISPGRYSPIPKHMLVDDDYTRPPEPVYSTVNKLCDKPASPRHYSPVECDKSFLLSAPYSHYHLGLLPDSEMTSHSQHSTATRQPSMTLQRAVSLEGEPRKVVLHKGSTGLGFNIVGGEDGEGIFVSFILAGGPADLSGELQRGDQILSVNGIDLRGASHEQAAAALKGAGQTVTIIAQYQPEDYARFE
UniProt Q12959, 220-554: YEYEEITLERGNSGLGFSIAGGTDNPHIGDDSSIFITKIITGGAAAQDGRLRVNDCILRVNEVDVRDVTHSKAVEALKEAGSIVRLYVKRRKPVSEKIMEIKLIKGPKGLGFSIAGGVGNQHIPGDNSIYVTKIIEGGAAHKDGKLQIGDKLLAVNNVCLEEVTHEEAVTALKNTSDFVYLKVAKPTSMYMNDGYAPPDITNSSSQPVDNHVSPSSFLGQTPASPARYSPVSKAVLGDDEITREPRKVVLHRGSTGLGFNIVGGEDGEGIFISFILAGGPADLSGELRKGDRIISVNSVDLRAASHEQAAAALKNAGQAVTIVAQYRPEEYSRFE

PSD-95 PDZ1-2-3 [2] = target: T2, PSD-95 PDZ1-2-3 (human, UniProt P78352 61-401); assay: fluorescence polarisation; competition against the monomeric CRIPT probe; 50 mM TRIS, 100 mM NaCl, 1 mM EDTA, 1 mM DTT; Ki calculated according to Nikolovska-Coleska et al.
T2 construct: human PSD-95, residues 61-401; Synthetic DNA in a modified pRSET vector; source: E. coli BL21(DE3)pLysS, purified (His-Trap IMAC, MonoQ ion exchange)

Full-length PSD-95 [3] = target: T1, Full-length PSD-95; assay: as above
PSD-93 PDZ1-2-3 [4] = target: T3, PSD-93 PDZ1-2-3 (human, UniProt Q15700 94-509); assay: as above
T3 construct: human PSD-93, residues 94-509; Synthetic DNA in a modified pRSET vector; source: E. coli BL21(DE3)pLysS, purified (His-Trap IMAC, MonoQ ion exchange)

SAP-102 PDZ1-2-3 [5] = target: T4, SAP-102 PDZ1-2-3 (human, UniProt Q92796 127-475); assay: as above
T4 construct: human SAP-102, residues 127-475; Synthetic DNA in a modified pRSET vector; source: E. coli BL21(DE3)pLysS, purified (His-Trap IMAC, MonoQ ion exchange)
T4 sequence (looked up): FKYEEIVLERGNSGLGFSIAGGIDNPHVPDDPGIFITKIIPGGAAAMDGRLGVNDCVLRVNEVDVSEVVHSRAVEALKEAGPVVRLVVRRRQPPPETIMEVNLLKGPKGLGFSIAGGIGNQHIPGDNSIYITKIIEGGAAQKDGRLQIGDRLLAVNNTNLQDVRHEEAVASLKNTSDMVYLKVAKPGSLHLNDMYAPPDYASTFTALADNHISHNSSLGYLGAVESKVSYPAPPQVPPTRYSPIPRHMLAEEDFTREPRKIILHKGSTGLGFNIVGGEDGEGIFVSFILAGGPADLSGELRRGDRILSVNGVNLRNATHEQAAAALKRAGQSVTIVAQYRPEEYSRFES

PSD-95 PDZ1-2-3 [6] = target: T2, PSD-95 PDZ1-2-3; assay: fluorescence polarisation; saturation binding of a monomeric fluorescent probe with varying protein; 50 mM TRIS, 100 mM NaCl, 1 mM EDTA, 1 mM DTT
PSD-93 PDZ1-2-3 [7] = target: T3, PSD-93 PDZ1-2-3; assay: as above
SAP-97 PDZ1-2-3 = target: T5, SAP-97 PDZ1-2-3 (human, UniProt Q12959 220-554); assay: as above
T5 construct: human SAP-97, residues 220-554; Synthetic DNA in a modified pRSET vector; source: E. coli BL21(DE3)pLysS, purified (His-Trap IMAC, MonoQ ion exchange)

SAP-102 PDZ1-2-3 [8] = target: T4, SAP-102 PDZ1-2-3; assay: as above

B1: CRIPT-06 (1) (peptide)
peptide: YKQTSV
notes: C-terminal hexapeptide of CRIPT; also called CRIPT hexapeptide; YKQTSV; source: synthetic peptide
Question: What does the source list for B1?
Answer: Ki (Full-length PSD-95 [1]): 1500 nM; Ki (PSD-95 PDZ1-2-3 [2]): 2700 nM; Ki (Full-length PSD-95 [3]): 4900 nM; Ki (PSD-93 PDZ1-2-3 [4]): 930 nM; Ki (SAP-102 PDZ1-2-3 [5]): 260 nM

B2: CRIPT-05 (peptide)
peptide: KQTSV
notes: C-terminal pentapeptide of CRIPT; source: synthetic peptide
Question: B2 was tested. Which Ki (Full-length PSD-95 [1]) did it give?
Answer: The Ki was 24000 nM.

Question: Which Ki (Full-length PSD-95 [1]) does the source give for LDTKNYKQTSV (source: synthetic peptide) [CRIPT-11] here?
Answer: The Ki was 4600 nM.

B3: CRIPT-09 (peptide)
peptide: TKNYKQTSV
notes: C-terminal peptide of CRIPT; source: synthetic peptide
Question: Which Ki (Full-length PSD-95 [1]) does the source give for B3 here?
Answer: Its Ki is 3100 nM.

B4: CRIPT-08 (peptide)
peptide: KNYKQTSV
notes: as for B3
Question: With B4 as the binder, how does the Ki (Full-length PSD-95 [1]) read?
Answer: Its Ki is 2100 nM.

Question: Which results are given for YKQTSV (fluorescent label, not named) [Monomeric CRIPT probe]?
Answer: Kd (PSD-95 PDZ1-2-3 [6]): 2100 nM; Kd (PSD-93 PDZ1-2-3 [7]): 830 nM; Kd (SAP-97 PDZ1-2-3): 1600 nM; Kd (SAP-102 PDZ1-2-3 [8]): 590 nM

B5: CRIPT-07 (peptide)
peptide: NYKQTSV
notes: as for B3
Question: With B5 as the binder, how does the Ki (Full-length PSD-95 [1]) read?
Answer: Its Ki is 3700 nM.

Reference: article PMC4319893 (PLoS ONE, 2015)
